Source: PubChem BioAssay AID463082 (The Scripps Research Institute Molecular Screening Center, 2010)
Only a part is listed here, and it is no random draw. Some salts and complexes are drawn in separate pieces, as the source files them; their charges need not balance. The source made the active and inactive calls.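 The calls were made as follows: active = inhibition above the mean inhibition across the screen plus 3 SD (cut at about 25% in these data); inactive = the rest.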

Protein sequences, listed by entry. Tags and fused reporters are not part of them.
UniProt Q13093, whole entry: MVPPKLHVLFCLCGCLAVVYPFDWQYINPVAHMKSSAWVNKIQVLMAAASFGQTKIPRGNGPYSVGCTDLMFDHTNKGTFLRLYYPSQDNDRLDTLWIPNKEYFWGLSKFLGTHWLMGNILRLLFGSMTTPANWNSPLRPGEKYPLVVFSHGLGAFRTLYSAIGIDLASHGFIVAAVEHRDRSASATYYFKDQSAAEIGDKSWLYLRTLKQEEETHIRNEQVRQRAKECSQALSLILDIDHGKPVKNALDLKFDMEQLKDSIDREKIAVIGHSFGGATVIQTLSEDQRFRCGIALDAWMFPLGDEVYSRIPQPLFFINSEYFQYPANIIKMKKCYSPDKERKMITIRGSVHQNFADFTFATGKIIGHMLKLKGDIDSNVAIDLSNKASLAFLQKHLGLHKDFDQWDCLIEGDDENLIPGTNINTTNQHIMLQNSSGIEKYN

Target: Platelet-activating factor acetylhydrolase (Homo sapiens) (UniProt Q13093)
Assay: inhibition of plasma PAF acetylhydrolase – biochemical, fluorescence polarization, human, primary screen (AID 463082);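 also: inhibitors block binding of the rhodamine activity-based probe so polarization drops; 0% = enzyme with DMSO and 100% = wells lacking pPAFAH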
Details: recombinant pPAFAH, FP-rhodamine probe fluorescence polarization; at 3.39 µM; hits give high values

SMILES	inhibition
Cc1ccc(C)c(NP(C)(=O)Oc2ccccc2)c1 (stereo not drawn)	inactive: -0.01%
Cc1cc(C)cc(OP(C)(=O)Nc2ccccn2)c1 (stereo not drawn)	inactive: -0.74%
CP(=O)(Nc1cccc(Br)c1)Oc1ccccc1 (stereo not drawn)	inactive: 0.84%
COc1ccccc1OP(C)(=O)Nc1cccc(Br)c1 (stereo not drawn)	inactive: 2.05%
CCOC(=O)c1ccc(NP(C)(=O)Oc2cc(C)cc(C)c2)cc1 (stereo not drawn)	inactive: -3.62%
Cc1cc(C)cc(OP(C)(=O)Nc2ccc(C)cc2C)c1 (stereo not drawn)	inactive: -1.24%
CC1=NCCc2c1[nH]c1ccccc21.O=[N+]([O-])c1cc([N+](=O)[O-])c(O)c([N+](=O)[O-])c1	inactive: 7.52%
O=C(O)c1cccc(Nc2c([N+](=O)[O-])cc([N+](=O)[O-])cc2[N+](=O)[O-])c1	inactive: 3.4%
CN1CCCCC1COC(=O)C1(O)c2ccccc2CCc2ccccc21 (stereo not drawn)	inactive: 4.85%
COc1ccccc1OP(C)(=O)Nc1c(C)cccc1C (stereo not drawn)	inactive: -0.78%
CCCOc1ccc(NP(C)(=O)Oc2ccc(Cl)cc2)cc1 (stereo not drawn)	inactive: 3.6%
CP(=O)(Nc1ccc(SC(F)(F)F)cc1)Oc1ccccc1 (stereo not drawn)	inactive: 0.46%
CC1=C2N=C(C=C3N=C(C(C)=C4[N-][C@@](C)([C@@H]5N=C1[C@](C)(CCC(=O)NC[C@@H](C)OP(=O)([O-])O[C@H]1[C@@H](O)[C@@H](n6cnc7cc(C)c(C)cc76)O[C@@H]1CO)[C@H]5CC(N)=O)[C@@](C)(CC(N)=O)[C@@H]4CCC(N)=O)[C@@](C)(CC(N)=O)[C@@H]3CCC(N)=O)C(C)(C)[C@@H]2CCC(N)=O.[C-]#N.[Co+3]	inactive: 1.5%
O=[N+]([O-])c1cc([N+](=O)[O-])c(Nc2nnnn2CCO)c([N+](=O)[O-])c1	inactive: 3.63%
CCOC(=O)C(CC)C1=NC(C)(C)Cc2ccccc21.O=[N+]([O-])c1cc([N+](=O)[O-])c(O)c([N+](=O)[O-])c1 (stereo not drawn)	inactive: 3.55%
O=[N+]([O-])c1cc([N+](=O)[O-])c(-c2cnn(-c3ccccc3)c2)c([N+](=O)[O-])c1	inactive: 10.6%
Cc1nc2ccc3ccccc3c2s1.O=[N+]([O-])c1cc([N+](=O)[O-])c(O)c([N+](=O)[O-])c1	inactive: -1.02%
O=[N+]([O-])c1cc([N+](=O)[O-])c(-n2nnc3ccccc32)c([N+](=O)[O-])c1	inactive: 0.1%
O=[N+]([O-])c1cc([N+](=O)[O-])c(O)c([N+](=O)[O-])c1.c1ccc(Oc2ccncc2)cc1	inactive: 3.89%
CCOC(=O)c1ccc(NP(C)(=O)Oc2ccc(OC)cc2)cc1 (stereo not drawn)	inactive: 2.2%
CCOP(C)(=S)SCC(=O)NC(C)C(=O)O (stereo not drawn)	inactive: -0.82%
CP(=O)(Nc1ccccn1)Oc1ccc(Cl)cc1 (stereo not drawn)	inactive: 4.78%

SMILES	inhibition
CP(=O)(Nc1ccc(SC(F)(F)F)cc1)Oc1ccc(Cl)cc1 (stereo not drawn)	inactive: 10.2%
Cc1cccc(C)c1OP(C)(=O)Nc1ccc(SC(F)(F)F)cc1 (stereo not drawn)	inactive: -13%
CP(=O)(Oc1ccccc1)OC(c1ccccc1)C(F)(F)F (stereo not drawn)	inactive: 3.91%
CP(=O)(NC(=O)Nc1ccccc1)Oc1ccccc1 (stereo not drawn)	inactive: 1%
CCc1ccc(OP(C)(=O)N2CCN(c3ccc([N+](=O)[O-])cc3)CC2)cc1 (stereo not drawn)	inactive: -2.67%
Cc1cc(C)cc(OP(C)(=O)Nc2ccc(SC(F)(F)F)cc2)c1 (stereo not drawn)	inactive: 5.95%
CP(=S)(Nn1cnnc1)Oc1ccccc1 (stereo not drawn)	inactive: -0.26%
CP(=O)(Nc1ccccc1Br)Oc1ccccc1 (stereo not drawn)	inactive: 2.87%
COc1ccccc1OP(C)(=O)Nc1ccccc1 (stereo not drawn)	inactive: 2.3%
COc1ccccc1OP(C)(=O)Nc1ccc(C)cc1 (stereo not drawn)	inactive: 5.94%
Cc1ccc(NP(C)(=O)Oc2ccccc2)c(C)c1 (stereo not drawn)	inactive: -0.45%
CCOC(=O)c1ccc(NP(C)(=O)Oc2ccccc2)cc1 (stereo not drawn)	inactive: 6.98%
Cc1cc(C)cc(OP(C)(N)=O)c1 (stereo not drawn)	inactive: -0.45%
COc1ccccc1OP(C)(=O)Nc1cc(Cl)ccc1C (stereo not drawn)	inactive: -0.87%
COc1ccc(OP(C)(=O)Nc2cccc(F)c2)cc1 (stereo not drawn)	inactive: 4.59%
O=[N+]([O-])c1cc([N+](=O)[O-])c(Nc2cccnc2)c([N+](=O)[O-])c1	inactive: 16.9%
O=[N+]([O-])c1ccc2c(c1)C=Nc1ccccc1O2	inactive: 7.42%
CC(C)(C)c1ccc(OP(C)(=O)Nc2ccc(SC(F)(F)F)cc2)cc1 (stereo not drawn)	inactive: 2.89%
Cc1cccc(C)c1OP(C)(N)=O (stereo not drawn)	inactive: 1.56%
CCN(CC)CCCOC(=O)C(O)(c1ccccc1)c1ccccc1	inactive: 2.12%
Cc1c(NP(C)(=O)Oc2ccc(C(C)C)cc2)c(=O)n(-c2ccccc2)n1C (stereo not drawn)	inactive: 0.88%
O=[N+]([O-])c1cc([N+](=O)[O-])c(Nc2ccccn2)c([N+](=O)[O-])c1	inactive: 2.46%

SMILES	inhibition
CP(=O)(Nc1ccccn1)Oc1ccccc1 (stereo not drawn)	inactive: 3.65%
COc1ccccc1OP(C)(=O)Nc1ccc(C)cc1C (stereo not drawn)	inactive: 2.41%
CCc1ccc(OP(C)(=O)O)cc1	inactive: 2.24%
COc1ccccc1OP(C)(=O)Nc1ccc(Br)cc1 (stereo not drawn)	inactive: 5.77%
COc1ccc(OP(C)(=O)Nc2ccccn2)cc1 (stereo not drawn)	inactive: 2.77%
CN(C)CCOC(=O)C(O)(c1ccccc1)C1CCCC1 (stereo not drawn)	inactive: 5.13%
Cc1nc2ccc3ccccc3c2o1.O=[N+]([O-])c1cc([N+](=O)[O-])c(O)c([N+](=O)[O-])c1	inactive: 4.39%
CP(=O)(Nc1ccc(Cl)cc1Cl)Oc1ccccc1 (stereo not drawn)	inactive: 0.12%
CP(=O)(OCCOc1ccccc1)OCCOc1ccccc1	inactive: 6.26%
Cc1cc(C)cc(OP(C)(=O)Nc2cccc(C(F)(F)F)c2)c1 (stereo not drawn)	inactive: 1.27%
COc1ccccc1OP(C)(=O)Nc1ccc(C)c(C)c1 (stereo not drawn)	inactive: 3.6%
COc1ccc(OP(C)(=O)Nc2ccccc2Br)cc1 (stereo not drawn)	inactive: 2.32%
Nc1ccc2c(ccc3cccnc32)n1.O=[N+]([O-])c1cc([N+](=O)[O-])c(O)c([N+](=O)[O-])c1	inactive: 2.28%
CCOC(=O)c1ccc(NP(C)(=O)Oc2ccc(Cl)cc2)cc1 (stereo not drawn)	inactive: 1.41%
CP(=O)(OC12CC3CC(CC(C3)C1)C2)OC12CC3CC(CC(C3)C1)C2	inactive: 4.07%
COc1ccccc1OP(C)(=O)Nc1ccccc1Br (stereo not drawn)	inactive: -3.18%
CC(C)(C)c1ccc(OP(C)(=O)O)cc1	inactive: -2.98%
CP(=O)(Nc1ccc(Cl)cc1)Oc1ccc(F)cc1 (stereo not drawn)	inactive: 0.46%
CN(C)C(=O)c1c([N+](=O)[O-])cc([N+](=O)[O-])cc1[N+](=O)[O-]	inactive: 4.98%
CCN(CC)CC(O)COC(=O)C(O)(c1ccccc1)C1CCCCC1 (stereo not drawn)	inactive: -0.14%
COc1ccc(OP(C)(=O)Nc2ccc(Br)cc2)cc1 (stereo not drawn)	inactive: 1.45%
COc1ccccc1OP(C)(=O)Nc1c(C)n(C)n(-c2ccccc2)c1=O (stereo not drawn)	inactive: 1.66%

SMILES	inhibition
O=C(OCCCN1CCCC1)C(O)(c1ccccc1)C1CCCCC1 (stereo not drawn)	inactive: 0.86%
CP(=O)(Oc1ccccc1)N1CCOC1=O (stereo not drawn)	inactive: 4.12%
CCc1ccc(OP(C)(=O)Nc2cccnc2)cc1 (stereo not drawn)	inactive: 4.02%
CP(=O)(Nc1ccc2c(c1)OCCO2)Oc1ccccc1 (stereo not drawn)	inactive: -0.93%
Cc1ccccc1NP(C)(=O)Nc1ccccc1C	inactive: 4.68%
CP(=O)(Nc1ccc(SC(F)(F)F)cc1)Oc1ccc(F)cc1 (stereo not drawn)	inactive: -2.12%
CCOP(C)(=S)SCC(=O)NC(C)(CC)C(=O)O (stereo not drawn)	inactive: -3.07%
O=[N+]([O-])c1cc([N+](=O)[O-])c(NCC2CCS(=O)(=O)C2)c([N+](=O)[O-])c1 (stereo not drawn)	inactive: 1.12%
COc1ccc(OP(C)(=O)Nc2cccc(Br)c2)cc1 (stereo not drawn)	inactive: 7.17%
CN(C)CCOC(=O)C(O)(c1ccccc1)C1CCCCC1 (stereo not drawn)	inactive: 0.14%
COc1ccc(NP(C)(=O)Oc2ccccc2OC)cc1 (stereo not drawn)	inactive: 2.81%
CCN(CC)CCCOC(=O)C(O)(c1ccccc1)C1CCCCC1 (stereo not drawn)	inactive: 0.54%
CP(=O)(Nc1ccccc1)Oc1ccc(F)cc1 (stereo not drawn)	inactive: 6.61%
O=[N+]([O-])c1cc([N+](=O)[O-])c(OC2CCCCC2O)c([N+](=O)[O-])c1 (stereo not drawn)	inactive: 7.19%
CCCCCOc1ccc(NP(C)(=O)Oc2ccc(Cl)cc2Cl)cc1 (stereo not drawn)	inactive: 10.5%
CCOC(=O)c1ccc(NP(C)(=O)Oc2ccc(F)cc2)cc1 (stereo not drawn)	inactive: 0.16%
COc1ccc(OP(C)(=O)Nc2ccc(SC(F)(F)F)cc2)cc1 (stereo not drawn)	inactive: 1.84%
O=C(OC1CN2CCC1CC2)c1ccc([N+](=O)[O-])cc1 (stereo not drawn)	inactive: -0.34%
O=C(OCCN1CCN(CCOCc2ccccc2)CC1)C(O)(c1ccccc1)c1ccccc1	inactive: 0.93%
COc1ccc2c(c1O)-c1c(O)c(OC)cc3c1[C@H](C2)[N+](C)(C)CC3.O=[N+]([O-])c1cc([N+](=O)[O-])c([O-])c([N+](=O)[O-])c1[O-]	inactive: 8.1%
CP(=O)(Nc1ccccc1F)Oc1ccccc1 (stereo not drawn)	inactive: 4.01%
CC(C)c1ccc(OP(C)(=O)Nc2ccc(SC(F)(F)F)cc2)cc1 (stereo not drawn)	inactive: -2.5%
